As a reminder, the Kd is the concentration at which binding is half-saturated.

The chains behind the UniProt entries cited, without tags or fusion partners. Residues count along the entry.
UniProt P55201, 625-740 limits assumed: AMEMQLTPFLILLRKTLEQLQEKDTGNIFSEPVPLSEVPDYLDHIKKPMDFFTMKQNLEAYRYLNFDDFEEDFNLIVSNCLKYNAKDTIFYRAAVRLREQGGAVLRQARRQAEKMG

Kd data for one compound are collected here from paper PMC11521936.

For one assay, the target named is BRD4 (Homo sapiens, UniProt O60885). The assay can be described thus: X-ray crystal structure; BROMOscan affinity.
Another assay addresses BRPF1 (Homo sapiens, UniProt P55201). The assay can be described thus: X-ray crystal structure; BROMOscan affinity.

As to `CC(=O)c1c(C)[nH]c(-c2csc(N3CCNCC3)n2)c1CCC(C)C`, the dissociation constant Kd is 3400 nM at BRD4 and 1400 nM at BRPF1.
